{"sequences": {"note": "Protein sequences, listed by entry. Tags and fused reporters are not part of them.", "UniProt Q8TDV5, whole entry": "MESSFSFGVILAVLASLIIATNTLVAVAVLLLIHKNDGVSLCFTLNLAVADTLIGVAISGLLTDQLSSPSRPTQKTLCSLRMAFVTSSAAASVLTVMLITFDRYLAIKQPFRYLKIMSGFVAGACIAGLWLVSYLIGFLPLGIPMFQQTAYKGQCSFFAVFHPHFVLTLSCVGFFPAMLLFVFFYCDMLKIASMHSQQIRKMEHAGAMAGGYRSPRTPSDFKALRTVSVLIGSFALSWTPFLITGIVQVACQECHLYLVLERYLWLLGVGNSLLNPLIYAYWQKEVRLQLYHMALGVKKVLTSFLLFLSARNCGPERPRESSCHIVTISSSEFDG"}, "source": "PubChem BioAssay AID1508611", "about": "(The Scripps Research Institute Molecular Screening Center, 2020)", "note": "This is a selection; strong and weak results do not stand in their true shares. Calls of active or inactive are those of the source.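 Rule for the calls: active = mean percent activation in the counterscreen above 29.09%; inactive = the rest.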", "data": [{"biological_target": "Glucose-dependent insulinotropic receptor (Homo sapiens) (UniProt Q8TDV5)", "experiment": "GPR119 activators in beta-arrestin cells, counter-screen for GPR151 activator project, cell-based, PathHunter beta-arrestin, luminescence, triplicate (AID 1508611);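 note: counterscreen on off-target GPR119 to flag nonselective hits from the GPR151 activator screen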", "details": "90 min, at 11.2 µM, active compounds read high, 0 = compound-well median, 100 = enzyme-acceptor control", "values": [{"smiles": "CCCN1CCC(Nc2ccc(Cl)cc2)CC1", "activation": "inactive: 8.37%"}]}]}
